Among the data in PubChem BioAssay AID742 (SRMLSC, 2007) are EC50 and Her2 inhibition values, retold here.

The entries are a selection whose mix differs from that of the whole data set. The source made the active and inactive calls. The rule behind the calls is not given here.

For assay [1], the system named is human cells, Her2 expression AlphaScreen; CTG viability. The assay is described as follows: inhibitors of Her2 kinase expression, dose response, cell-based, AlphaScreen, CellTiter-Glo viability (AID 742). To be noted: viability, CellTiter-Glo.
Assay in assay [2]: as above
To be noted: human cells, Her2 expression AlphaScreen; CTG viability; at 9.62 µM (top of the series).

Take `CCc1nc2c(n1)c1c(non1O)c1c2no[n+]1[O-]`: the EC50 in assay [1] was above 9.62 µM. The Her2 inhibition in assay [2] was inactive: 7.44%.
